Source: patent US9868746B2, “Substituted 5-aminothieno[2,3-C]pyridazine-6-carboxamide analogs as positive allosteric modulators of the muscarinic acetylcholine receptor M4” (Vanderbilt University, priority 2012, dated 2018)

Amino acid sequences for entries named in this document (tags omitted).
UniProt P08173, whole entry: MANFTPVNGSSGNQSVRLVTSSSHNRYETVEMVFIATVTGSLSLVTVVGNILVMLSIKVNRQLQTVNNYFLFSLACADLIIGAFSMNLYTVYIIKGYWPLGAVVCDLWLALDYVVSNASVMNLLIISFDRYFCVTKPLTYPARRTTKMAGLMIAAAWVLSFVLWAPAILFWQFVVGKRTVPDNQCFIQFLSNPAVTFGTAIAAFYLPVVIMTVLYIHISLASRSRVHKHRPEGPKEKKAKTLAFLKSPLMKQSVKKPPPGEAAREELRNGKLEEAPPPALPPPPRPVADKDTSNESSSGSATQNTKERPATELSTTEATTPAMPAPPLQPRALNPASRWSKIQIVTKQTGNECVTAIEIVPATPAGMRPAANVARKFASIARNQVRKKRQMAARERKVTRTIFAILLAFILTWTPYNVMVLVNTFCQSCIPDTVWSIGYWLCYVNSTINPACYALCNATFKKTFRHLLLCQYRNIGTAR

Target: T1, mAChR M4 (Homo sapiens, UniProt P08173)
T1 construct: expressed in transfected cells; host or cells: CHO-K1 cells stably transfected with M4 cDNA and chimeric G-protein Gqi5
Assay: mAChR M4 cell-based functional assay (calcium mobilization, potentiation of EC20 acetylcholine response)
Settings: >10,000 estimated for low potency compounds without plateau

- EC50: 24 nM
SMILES: Cc1nnc2sc(C(=O)NCc3ccc(S(=O)(=O)C(F)(F)F)cc3)c(N)c2c1C [Example B66]
